Reference: patent publication US20050256301A1 (The University of Queensland, priority 1998, published 2005)

Amino acid sequences for entries named in this document (tags omitted).
UniProt P23975, whole entry: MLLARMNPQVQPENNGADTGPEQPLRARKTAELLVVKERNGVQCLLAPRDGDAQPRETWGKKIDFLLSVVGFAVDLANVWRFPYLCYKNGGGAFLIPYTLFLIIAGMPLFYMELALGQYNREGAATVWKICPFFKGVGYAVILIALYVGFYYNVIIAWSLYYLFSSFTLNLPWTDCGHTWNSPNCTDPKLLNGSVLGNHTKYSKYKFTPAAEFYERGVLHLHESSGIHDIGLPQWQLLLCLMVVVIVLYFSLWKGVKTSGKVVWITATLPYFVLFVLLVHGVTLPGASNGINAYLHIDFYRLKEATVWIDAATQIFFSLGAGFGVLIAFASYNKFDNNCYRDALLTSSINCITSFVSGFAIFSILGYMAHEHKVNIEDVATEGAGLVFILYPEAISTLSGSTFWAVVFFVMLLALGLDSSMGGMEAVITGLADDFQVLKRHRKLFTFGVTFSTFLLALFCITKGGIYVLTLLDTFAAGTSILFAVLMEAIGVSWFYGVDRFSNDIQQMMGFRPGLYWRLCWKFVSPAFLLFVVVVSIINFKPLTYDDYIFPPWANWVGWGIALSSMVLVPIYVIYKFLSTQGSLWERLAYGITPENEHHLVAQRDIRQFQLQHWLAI

How the values were obtained:
[1] = target: T1, human NET expressed in Cos-7 cells (Homo sapiens, UniProt P23975); assay: biochemical; format: binding
T1 construct: expressed in transfected cells; host or cells: COS-7 cells, transient transfection

[2] = tested on: trypsin; settings: pH 8

SMILES | EC50 ([1]; EC50 (Table 5)) [nM] | EC50 ([1]; EC50 (Table 4)) [nM] | EC50 ([1]; EC50 (text of Example 10)) [nM] | resistance to cleavage by trypsin [2]
CC(C)C[C@@H]1NC(=O)[C@H](CCCCN)NC(=O)[C@H](Cc2ccc(O)cc2)NC(=O)CNC(=O)[C@@H]2C[Se][Se]C[C@H](NC1=O)C(=O)N[C@@H](Cc1c[nH]cn1)C(=O)N1C[C@H](O)C[C@H]1C(=O)N[C@H]1CSSC[C@H](NC(=O)[C@H](C(C)C)NC(=O)CNC(=O)[C@H](CC(N)=O)NC(=O)CNC(=O)[C@H](C)NC1=O)C(=O)N2 [[Sec5,10]cMrIA-AG, Asn Gly Val Cys Sec Gly Tyr Lys Leu Sec His Hyp Cys Ala Gly] | 2140 ± 880 | – | – | –
CC(C)C[C@@H]1NC(=O)[C@H](CCCCN)NC(=O)[C@H](Cc2ccc(O)cc2)NC(=O)CNC(=O)[C@@H]2CSSC[C@H](NC1=O)C(=O)N[C@@H](Cc1c[nH]cn1)C(=O)N1C[C@H](O)C[C@H]1C(=O)N[C@H]1CSSC[C@H](NC(=O)[C@H](C(C)C)NC(=O)CNC(=O)[C@H](CC(N)=O)NC(=O)CNC(=O)[C@H](C)NC1=O)C(=O)N2 [cMrIA-AG, Asn Gly Val Cys Cys Gly Tyr Lys Leu Cys His Hyp Cys Ala Gly] | – | 6460 ± 1170 | 990 | significantly resistant to cleavage by trypsin
